The target in this assay is Beta Secretase enzyme (BACE) (Homo sapiens, UniProt P56817). Nature of the assay: In vitro enzymatic BACE FRET (fluorescence resonance energy transfer) assay. It is filed as biochemical. Particulars: average IC50, enzyme assay.

Amino acid sequences for entries named in this document (tags omitted). Residues count along the entry.
UniProt P56817, 46-501, species assumed: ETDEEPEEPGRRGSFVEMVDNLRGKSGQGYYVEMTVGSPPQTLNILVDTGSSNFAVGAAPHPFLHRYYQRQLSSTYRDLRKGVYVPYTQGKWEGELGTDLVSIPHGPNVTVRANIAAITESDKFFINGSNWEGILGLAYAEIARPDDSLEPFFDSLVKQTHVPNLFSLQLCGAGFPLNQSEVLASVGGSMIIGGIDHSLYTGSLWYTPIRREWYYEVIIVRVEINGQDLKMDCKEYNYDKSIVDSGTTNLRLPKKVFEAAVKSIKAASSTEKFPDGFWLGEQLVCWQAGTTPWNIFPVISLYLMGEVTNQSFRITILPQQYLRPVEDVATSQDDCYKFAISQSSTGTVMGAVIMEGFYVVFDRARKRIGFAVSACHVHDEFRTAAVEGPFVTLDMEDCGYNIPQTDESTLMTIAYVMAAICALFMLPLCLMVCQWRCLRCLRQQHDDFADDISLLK

Read-outs that look alike come from different tables or passages of the source.

For the molecule `NC1=N[C@@]2(CO1)c1cc(-c3cccnc3F)ccc1Oc1cnc([C@@H]3CCCCO3)cc12` [Example 374, (5S)-7-(2-fluoro-3-pyridinyl)-3-((2S)-tetrahydro-2H-pyran-2-yl)spiro[chromeno[2,3-c]pyridine-5,4′-[1,3]oxazol]-2′-amine], the IC50 (BACE 1 FRET assay (uM)) was 0.0185 µM.
The same measure, in the same setting: then `NC1=N[C@@]2(CO1)c1cc(-c3cccnc3F)ccc1Oc1cnc(N3CC[C@H](F)C3)cc12` [Example 133, (S)-7-(2-fluoropyridin-3-yl)-3-((S)-3-fluoropyrrolidin-1-yl)-5′H-spiro[chromeno[2,3-c]pyridine-5,4′-oxazol]-2′-amine], with 0.0027 µM.
With `NC1=N[C@]2(CS1)c1cc(-c3cccnc3F)ccc1Oc1c2cc(-c2ccnc(F)c2)nc1F` [Example 997, (5R)-1-fluoro-7-(2-fluoro-3-pyridinyl)-3-(2-fluoro-4-pyridinyl)spiro[chromeno[2,3-c]pyridine-5,4′-[1,3]thiazol]-2′-amine], under “read-out: BACE 1 FRET assay”, the IC50 was 0.0175 µM.
On to `NC1=N[C@@]2(CO1)c1cc(-c3cccnc3F)ccc1Oc1cnc([C@H]3CCCCO3)cc12` [Example 375, (5S)-7-(2-fluoro-3-pyridinyl)-3-((2R)-tetrahydro-2H-pyran-2-yl)spiro[chromeno[2,3-c]pyridine-5,4′-[1,3]oxazol]-2′-amine], for which the IC50 (BACE 1 FRET assay (uM)) is 0.0022 µM.
On the same count and under the same terms, then `NC1=N[C@@]2(CO1)c1cc(-c3cccnc3F)ccc1Oc1cnc(N3CC[C@@H](F)C3)cc12` [Example 416, (5S)-7-(2-fluoro-3-pyridinyl)-3-((3R)-3-fluoro-1-pyrrolidinyl)spiro[chromeno[2,3-c]pyridine-5,4′-[1,3]oxazol]-2′-amine], with 0.0005 µM.

The record behind these values is patent publication US8883782B2, “Spiro-tetracyclic ring compounds as beta-secretase modulators and methods of use” (Amgen Inc., priority 2010, dated 2014).
